Results published in patent US10233152B2, “LSD1 inhibitors” (Mirati Therapeutics, Inc., priority 2015, dated 2019).

Tested on: MV4-11 cells
Assay: Inhibition of LSD1-mediated cell proliferation, CellTiter Glo luminescence assay
Conditions: Homo sapiens, MV4-11, 168 h, read-out: Inhibition of LSD1-mediated Cell Proliferation IC50

Row | SMILES | IC50 [nM]
1 | Cc1cc(OCCN2CCC(N[C@@H]3C[C@H]3c3ccccc3)CC2)ccn1 [Example 36, 1-[2-[(2-methyl-4-pyridyl)oxy]ethyl]-N-[(1R, 2S)-2-phenylcyclopropyl]piperidin-4-amine] | 28
2 | CNC(=O)NCCN1CCC(N[C@@H]2C[C@H]2c2ccccc2)CC1 [Example 38, 1-methyl-3-(2-(4-(((1R,2S)-2-phenylcyclopropyl)amino)piperidin-1-yl)ethyl)urea] | < 1
3 | O=C(O)/C=C/c1ccc(OCCN2CCC(N[C@@H]3C[C@H]3c3ccccc3)CC2)cc1 [Example 40, (E)-3-(4-(2-(4-(((1R,2S)-2-Phenylcyclopropyl)amino)piperidin-1-yl)ethoxy)phenyl)acrylic acid] | < 1
4 | O=C(O)Cc1ccc(OCCN2CCC(N[C@@H]3C[C@H]3c3ccccc3)CC2)cc1F [Example 43, 2-(2-Fluoro-4-(2-(4-(((1R,2S)-2-phenylcyclopropyl)amino)piperidin-1-yl)ethoxy)phenyl)acetic acid] | 10
5 | O=C1CC(N[C@@H]2C[C@H]2c2ccccc2)CC(=O)N1CCOc1ccc(Br)cc1 [Example 47, 1-(2-(4-bromophenoxy)ethyl)-4-(((1R,2S)-2-phenylcyclopropyl)amino)piperidine-2,6-dione] | 885

Other lines, results leading:

Row | IC50 [nM] | SMILES
6 | 3 | OC(COc1ccccc1)CN1C[C@H]2C[C@@H](C1)C2N[C@@H]1C[C@H]1c1ccccc1 (relative stereo) [Example 9, 1-phenoxy-3-[(1R,5S)-6-[[(trans)-2-phenylcyclopropyl]amino]-3-azabicyclo[3.1.1]heptan-3-yl]propan-2-ol]
7 | < 1 | O=C(O)Cc1ccc(OCCN2CCC(N[C@@H]3C[C@H]3c3ccccc3)CC2)cc1 [Example 15, 2-(4-(2-(4-(((1R,2S)-2-Phenylcyclopropyl)amino)piperidin-1-yl)ethoxy)phenyl)acetic acid]
8 | < 1 | CN(C)C(=O)Cc1ccc(OCCN2CCC(N[C@@H]3C[C@H]3c3ccccc3)CC2)cc1 [Example 18, N,N-Dimethyl-2-(4-(2-(4-(((1R,2S)-2-phenylcyclopropyl)amino)piperidin-1-yl)ethoxy)phenyl)acetamide]
9 | 3 | O=C(O)/C=C/c1ccc(OCC(O)CN2CCC(N[C@@H]3C[C@H]3c3ccccc3)CC2)cc1 (stereo partly drawn) [Example 35, (E)-3-(4-(2-hydroxy-3-(4-(((1R,2S)-2-phenylcyclopropyl)amino)piperidin-1-yl)propoxy)phenyl)acrylic acid]
10 | 30 | O=C(O)c1ccncc1OCCN1CCC(N[C@@H]2C[C@H]2c2ccccc2)CC1 [Example 140]
